The source of these data is patent US11987564B2, “PTPRD inhibitors and uses thereof” (United States Government as represented by the Department …, priority 2021, dated 2024).

By UniProt entry, the sequences of proteins in these tests, tags left out. Residues count along the entry.
UniProt P23468, 21-1912 limits assumed: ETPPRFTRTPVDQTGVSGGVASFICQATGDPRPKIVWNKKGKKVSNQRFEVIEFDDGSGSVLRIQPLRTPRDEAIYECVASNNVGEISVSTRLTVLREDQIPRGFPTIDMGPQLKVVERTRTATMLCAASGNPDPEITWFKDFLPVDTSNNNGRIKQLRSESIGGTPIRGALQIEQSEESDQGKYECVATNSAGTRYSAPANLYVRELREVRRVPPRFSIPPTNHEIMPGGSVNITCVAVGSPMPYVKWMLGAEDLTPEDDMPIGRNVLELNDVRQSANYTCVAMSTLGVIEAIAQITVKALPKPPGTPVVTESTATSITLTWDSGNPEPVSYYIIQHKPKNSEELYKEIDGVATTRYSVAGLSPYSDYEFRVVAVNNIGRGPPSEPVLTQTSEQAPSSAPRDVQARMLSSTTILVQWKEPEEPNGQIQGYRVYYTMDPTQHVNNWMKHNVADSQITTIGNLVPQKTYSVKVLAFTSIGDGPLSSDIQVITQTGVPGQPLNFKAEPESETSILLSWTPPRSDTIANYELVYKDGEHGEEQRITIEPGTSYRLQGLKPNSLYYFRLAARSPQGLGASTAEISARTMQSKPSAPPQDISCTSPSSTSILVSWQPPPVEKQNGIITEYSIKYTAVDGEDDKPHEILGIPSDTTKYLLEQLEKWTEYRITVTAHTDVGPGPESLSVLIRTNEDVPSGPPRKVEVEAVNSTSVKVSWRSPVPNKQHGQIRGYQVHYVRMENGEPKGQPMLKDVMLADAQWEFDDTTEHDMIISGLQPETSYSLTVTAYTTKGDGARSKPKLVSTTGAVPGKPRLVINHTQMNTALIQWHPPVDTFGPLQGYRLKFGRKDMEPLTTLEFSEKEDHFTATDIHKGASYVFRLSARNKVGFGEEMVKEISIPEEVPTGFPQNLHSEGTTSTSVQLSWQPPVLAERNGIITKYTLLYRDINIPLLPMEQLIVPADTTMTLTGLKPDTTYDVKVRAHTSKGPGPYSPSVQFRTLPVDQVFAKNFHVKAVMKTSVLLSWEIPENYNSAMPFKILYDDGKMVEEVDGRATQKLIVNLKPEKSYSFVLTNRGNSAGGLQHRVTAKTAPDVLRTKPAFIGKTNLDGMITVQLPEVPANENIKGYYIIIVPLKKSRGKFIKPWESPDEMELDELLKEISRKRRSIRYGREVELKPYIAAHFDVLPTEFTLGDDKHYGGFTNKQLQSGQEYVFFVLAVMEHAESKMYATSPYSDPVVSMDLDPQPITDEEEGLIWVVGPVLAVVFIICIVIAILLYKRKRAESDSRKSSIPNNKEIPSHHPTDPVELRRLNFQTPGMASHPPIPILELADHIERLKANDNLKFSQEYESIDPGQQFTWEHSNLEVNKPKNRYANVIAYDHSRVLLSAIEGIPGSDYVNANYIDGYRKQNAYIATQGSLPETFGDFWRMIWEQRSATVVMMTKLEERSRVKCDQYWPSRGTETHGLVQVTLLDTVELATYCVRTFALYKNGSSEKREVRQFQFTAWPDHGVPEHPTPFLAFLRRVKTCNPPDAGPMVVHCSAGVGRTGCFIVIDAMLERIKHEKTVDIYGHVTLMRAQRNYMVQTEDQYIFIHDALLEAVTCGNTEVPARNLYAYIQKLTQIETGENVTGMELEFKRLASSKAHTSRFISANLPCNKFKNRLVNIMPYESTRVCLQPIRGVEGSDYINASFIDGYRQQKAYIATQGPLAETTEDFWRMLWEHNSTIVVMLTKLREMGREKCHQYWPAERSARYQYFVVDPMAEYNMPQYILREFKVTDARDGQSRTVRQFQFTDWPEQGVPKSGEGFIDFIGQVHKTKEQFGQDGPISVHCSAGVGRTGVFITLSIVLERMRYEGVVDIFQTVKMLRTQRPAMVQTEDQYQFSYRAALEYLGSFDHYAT
UniProt P10586, 30-1907 limits assumed: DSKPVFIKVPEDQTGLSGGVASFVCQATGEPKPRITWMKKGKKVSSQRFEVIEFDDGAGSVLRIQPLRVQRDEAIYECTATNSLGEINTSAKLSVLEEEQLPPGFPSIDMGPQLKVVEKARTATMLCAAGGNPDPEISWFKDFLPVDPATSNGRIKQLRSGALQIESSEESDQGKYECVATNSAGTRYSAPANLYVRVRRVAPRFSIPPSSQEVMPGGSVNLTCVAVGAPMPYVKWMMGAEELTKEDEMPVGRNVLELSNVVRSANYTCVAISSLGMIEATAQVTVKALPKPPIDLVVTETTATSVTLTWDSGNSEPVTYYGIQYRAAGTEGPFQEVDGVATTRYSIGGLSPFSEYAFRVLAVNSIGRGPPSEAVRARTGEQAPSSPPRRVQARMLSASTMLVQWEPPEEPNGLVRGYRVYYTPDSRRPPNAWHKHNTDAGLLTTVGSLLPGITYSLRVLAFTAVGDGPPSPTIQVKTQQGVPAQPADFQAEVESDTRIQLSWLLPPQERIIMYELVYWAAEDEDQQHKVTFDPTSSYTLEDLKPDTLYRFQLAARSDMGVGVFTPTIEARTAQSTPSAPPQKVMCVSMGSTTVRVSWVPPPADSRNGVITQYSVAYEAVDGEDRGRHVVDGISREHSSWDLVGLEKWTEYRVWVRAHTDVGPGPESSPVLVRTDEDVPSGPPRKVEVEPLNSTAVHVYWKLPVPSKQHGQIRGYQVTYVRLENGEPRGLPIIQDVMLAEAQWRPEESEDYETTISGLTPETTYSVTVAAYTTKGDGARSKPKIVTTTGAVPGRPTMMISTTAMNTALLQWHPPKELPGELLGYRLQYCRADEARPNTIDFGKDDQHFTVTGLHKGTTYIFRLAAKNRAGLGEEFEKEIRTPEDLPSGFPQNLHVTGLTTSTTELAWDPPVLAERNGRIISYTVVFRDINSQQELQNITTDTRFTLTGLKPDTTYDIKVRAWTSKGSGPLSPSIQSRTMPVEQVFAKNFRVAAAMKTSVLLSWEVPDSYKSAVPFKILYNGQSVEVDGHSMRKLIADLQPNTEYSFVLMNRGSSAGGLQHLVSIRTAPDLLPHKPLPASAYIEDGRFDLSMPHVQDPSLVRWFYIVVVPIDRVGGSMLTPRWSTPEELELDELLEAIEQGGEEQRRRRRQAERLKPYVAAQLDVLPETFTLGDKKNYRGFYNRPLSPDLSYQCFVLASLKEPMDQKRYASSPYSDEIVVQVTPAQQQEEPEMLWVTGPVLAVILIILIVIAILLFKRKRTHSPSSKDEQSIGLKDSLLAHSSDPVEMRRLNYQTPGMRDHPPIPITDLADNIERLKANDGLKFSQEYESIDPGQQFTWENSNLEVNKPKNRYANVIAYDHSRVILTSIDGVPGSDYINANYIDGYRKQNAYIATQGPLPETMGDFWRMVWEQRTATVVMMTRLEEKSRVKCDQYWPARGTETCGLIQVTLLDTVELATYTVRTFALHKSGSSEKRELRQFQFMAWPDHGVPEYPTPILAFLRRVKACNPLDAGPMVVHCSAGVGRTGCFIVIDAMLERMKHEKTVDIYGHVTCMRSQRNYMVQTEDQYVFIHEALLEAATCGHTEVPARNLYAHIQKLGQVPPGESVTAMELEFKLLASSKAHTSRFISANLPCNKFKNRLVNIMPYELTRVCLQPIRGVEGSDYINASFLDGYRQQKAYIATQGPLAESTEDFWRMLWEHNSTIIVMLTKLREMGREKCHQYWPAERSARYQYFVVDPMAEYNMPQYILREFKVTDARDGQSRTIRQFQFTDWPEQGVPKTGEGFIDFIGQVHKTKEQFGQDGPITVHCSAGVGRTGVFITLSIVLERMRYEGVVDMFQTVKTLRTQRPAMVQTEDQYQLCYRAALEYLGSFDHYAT
UniProt Q12913, 36-1337 limits assumed: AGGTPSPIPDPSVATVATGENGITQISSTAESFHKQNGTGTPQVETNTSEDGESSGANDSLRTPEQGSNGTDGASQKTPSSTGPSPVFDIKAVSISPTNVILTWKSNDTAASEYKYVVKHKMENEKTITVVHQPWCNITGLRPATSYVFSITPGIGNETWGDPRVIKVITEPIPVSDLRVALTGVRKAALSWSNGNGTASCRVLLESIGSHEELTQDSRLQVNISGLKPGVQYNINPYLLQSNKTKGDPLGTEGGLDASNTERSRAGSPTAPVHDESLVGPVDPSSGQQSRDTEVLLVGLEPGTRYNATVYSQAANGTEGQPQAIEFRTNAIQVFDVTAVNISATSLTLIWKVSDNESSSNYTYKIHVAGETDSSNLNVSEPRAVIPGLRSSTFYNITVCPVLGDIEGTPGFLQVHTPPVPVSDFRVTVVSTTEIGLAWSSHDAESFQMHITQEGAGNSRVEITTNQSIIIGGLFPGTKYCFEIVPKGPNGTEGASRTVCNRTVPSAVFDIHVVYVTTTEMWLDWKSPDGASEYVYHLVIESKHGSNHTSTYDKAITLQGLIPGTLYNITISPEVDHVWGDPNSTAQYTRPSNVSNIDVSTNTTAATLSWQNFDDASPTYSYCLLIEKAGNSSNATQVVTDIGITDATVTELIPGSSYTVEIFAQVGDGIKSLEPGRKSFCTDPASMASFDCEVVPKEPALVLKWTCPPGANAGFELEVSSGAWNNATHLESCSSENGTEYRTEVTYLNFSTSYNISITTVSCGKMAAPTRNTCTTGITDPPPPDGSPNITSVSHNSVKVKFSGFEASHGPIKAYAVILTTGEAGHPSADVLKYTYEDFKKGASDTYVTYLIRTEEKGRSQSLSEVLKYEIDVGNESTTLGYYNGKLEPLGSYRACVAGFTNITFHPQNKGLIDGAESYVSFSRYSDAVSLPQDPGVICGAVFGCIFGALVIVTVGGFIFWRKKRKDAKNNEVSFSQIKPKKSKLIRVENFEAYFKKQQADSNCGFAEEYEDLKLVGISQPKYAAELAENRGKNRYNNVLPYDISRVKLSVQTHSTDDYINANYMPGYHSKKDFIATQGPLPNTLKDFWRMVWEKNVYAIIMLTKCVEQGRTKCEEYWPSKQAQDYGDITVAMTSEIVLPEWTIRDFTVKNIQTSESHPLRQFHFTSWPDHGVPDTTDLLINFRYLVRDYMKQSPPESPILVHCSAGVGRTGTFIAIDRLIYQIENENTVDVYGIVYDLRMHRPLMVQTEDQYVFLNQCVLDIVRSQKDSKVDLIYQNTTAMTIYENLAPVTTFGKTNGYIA

pIC50: −log10 of the molar value.

One assay has as its target recombinant PTPRD (Homo sapiens, UniProt P23468). In words: pNPP hydrolysis by recombinant PTPRD phosphatase. The settings on record: read-out: PTPRD IC50; untitled table after Table 4; mean, SEM in wrapped line; compounds with PTPRD IC50 <5 μM.
In the next assay the target is PTPRF (Homo sapiens, UniProt P10586). Description: pNPP hydrolysis by recombinant PTPRF phosphatase. The settings on record: read-out: PTPRF IC50; untitled table after Table 4; mean, SEM in wrapped line.
Another assay addresses PTPRS (Homo sapiens, UniProt Q13332). Description: pNPP hydrolysis by recombinant PTPRS phosphatase. The conditions noted are these: read-out: PTPRS IC50; untitled table after Table 4; mean, SEM in wrapped line.
Another assay concerns the target PTPRJ (Homo sapiens, UniProt Q12913). In words: pNPP hydrolysis by PTPRJ phosphatase. The settings on record: read-out: PTPRJ IC50; untitled table after Table 4; mean, SEM in wrapped line.

As to `COc1c(OCC23CC(C2)C3)cc2c(c1C=O)CC(O)OC2=O` (stereo not shown), the pIC50 is 5.47 at recombinant PTPRD, 5.45 at PTPRF, 5.68 on PTPRS and 4.68 on PTPRJ.

One may read the pIC50 as −log10 of the IC50, conventionally taken in molar units.
